Test results from patent publication US20110020252A1, “METHOD OF LONG LASTING HUMAN SKIN TANNING” (priority 2010, published 2011).

System: human skin
Test: Skin tanning with oral Rifampin plus sun/UVR exposure (patient, volunteers, tanning booth users)
Conditions: patient taking Rifampin, sunbathed 2-3 hours a day for 3 days

With CO[C@H]1/C=C/O[C@@]2(C)Oc3c(C)c(O)c4c(O)c(c(/C=N/N5CCN(C)CC5)c(O)c4c3C2=O)NC(=O)/C(C)=C\C=C\[C@H](C)[C@H](O)[C@@H](C)[C@@H](O)[C@@H](C)[C@H](OC(C)=O)[C@@H]1C [Rifampin] the “duration of tan without fading” value was greater than 4 months and the “tan of extremities, chest and abdomen” value was “tanned bronze brown”.
